Legend:
Experiment in all cases: Kinase selectivity profiling
Format in all cases: biochemical
FGF-R1 = FGF-R1 (Homo sapiens, UniProt P11362); details: 1 µM, assay duplicates
Protocol: (§1) [20] Kinase selectivity profiling for compounds 7a, 7d, 14d and 14g was carried out at the International Centre for Protein Kinase Profiling, Division of Signal Transduction Therapy, University of Dundee.
(§2) Table S1: Kinase selectivity profiling of compounds 7a and 7d in a 102-kinase panel screened at a concentration of 1 µM.
(§3) Table S2: Kinase selectivity profiling of compounds 14d and 14g in a 105-kinase panel screened at a concentration of 1 µM.

Sequences of proteins named here, by UniProt entry; tags and fusion partners are left off. Residues count along the entry.
UniProt O60674, whole entry: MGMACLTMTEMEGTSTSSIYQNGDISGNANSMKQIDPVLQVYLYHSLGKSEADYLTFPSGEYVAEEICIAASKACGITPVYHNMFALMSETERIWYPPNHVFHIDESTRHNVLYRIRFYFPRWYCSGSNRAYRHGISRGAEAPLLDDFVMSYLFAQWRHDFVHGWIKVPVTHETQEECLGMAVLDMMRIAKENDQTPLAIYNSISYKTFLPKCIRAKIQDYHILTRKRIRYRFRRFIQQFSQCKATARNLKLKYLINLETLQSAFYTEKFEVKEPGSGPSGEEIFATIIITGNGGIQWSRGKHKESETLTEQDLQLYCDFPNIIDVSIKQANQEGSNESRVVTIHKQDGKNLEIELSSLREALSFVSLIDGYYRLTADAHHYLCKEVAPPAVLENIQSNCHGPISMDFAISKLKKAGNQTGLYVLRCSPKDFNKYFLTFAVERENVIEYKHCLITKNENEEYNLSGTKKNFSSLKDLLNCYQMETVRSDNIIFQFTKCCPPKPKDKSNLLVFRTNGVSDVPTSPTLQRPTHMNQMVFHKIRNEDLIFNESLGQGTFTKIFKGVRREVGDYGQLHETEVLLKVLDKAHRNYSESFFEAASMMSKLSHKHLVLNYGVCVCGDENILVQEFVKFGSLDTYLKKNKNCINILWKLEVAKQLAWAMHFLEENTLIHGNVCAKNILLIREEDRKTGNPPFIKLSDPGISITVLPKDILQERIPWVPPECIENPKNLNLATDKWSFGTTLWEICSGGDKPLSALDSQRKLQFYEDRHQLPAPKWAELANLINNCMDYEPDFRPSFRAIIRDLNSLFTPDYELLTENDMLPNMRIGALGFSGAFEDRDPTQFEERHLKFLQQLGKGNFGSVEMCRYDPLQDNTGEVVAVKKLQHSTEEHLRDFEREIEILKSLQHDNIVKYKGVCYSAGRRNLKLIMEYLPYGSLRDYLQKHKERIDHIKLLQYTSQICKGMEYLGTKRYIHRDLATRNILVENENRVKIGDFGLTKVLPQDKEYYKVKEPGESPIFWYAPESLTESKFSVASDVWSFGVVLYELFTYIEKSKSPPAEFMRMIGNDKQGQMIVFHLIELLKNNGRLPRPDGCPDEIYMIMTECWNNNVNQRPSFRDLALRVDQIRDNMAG
UniProt P07947, whole entry: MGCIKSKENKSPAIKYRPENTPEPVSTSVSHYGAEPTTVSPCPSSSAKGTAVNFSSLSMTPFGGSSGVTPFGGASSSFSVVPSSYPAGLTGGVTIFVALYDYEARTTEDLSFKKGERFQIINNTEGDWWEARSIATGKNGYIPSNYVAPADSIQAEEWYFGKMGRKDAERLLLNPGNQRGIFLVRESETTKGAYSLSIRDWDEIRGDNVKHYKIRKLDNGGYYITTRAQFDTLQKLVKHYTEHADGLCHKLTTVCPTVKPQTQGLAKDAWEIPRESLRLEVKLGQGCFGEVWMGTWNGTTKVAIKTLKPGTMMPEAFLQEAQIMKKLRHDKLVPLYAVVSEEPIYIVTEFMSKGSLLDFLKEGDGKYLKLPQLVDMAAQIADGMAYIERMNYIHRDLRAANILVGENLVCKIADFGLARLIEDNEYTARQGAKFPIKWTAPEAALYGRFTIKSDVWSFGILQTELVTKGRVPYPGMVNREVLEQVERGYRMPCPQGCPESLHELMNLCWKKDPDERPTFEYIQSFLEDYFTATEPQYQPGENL
UniProt Q96RR4, whole entry: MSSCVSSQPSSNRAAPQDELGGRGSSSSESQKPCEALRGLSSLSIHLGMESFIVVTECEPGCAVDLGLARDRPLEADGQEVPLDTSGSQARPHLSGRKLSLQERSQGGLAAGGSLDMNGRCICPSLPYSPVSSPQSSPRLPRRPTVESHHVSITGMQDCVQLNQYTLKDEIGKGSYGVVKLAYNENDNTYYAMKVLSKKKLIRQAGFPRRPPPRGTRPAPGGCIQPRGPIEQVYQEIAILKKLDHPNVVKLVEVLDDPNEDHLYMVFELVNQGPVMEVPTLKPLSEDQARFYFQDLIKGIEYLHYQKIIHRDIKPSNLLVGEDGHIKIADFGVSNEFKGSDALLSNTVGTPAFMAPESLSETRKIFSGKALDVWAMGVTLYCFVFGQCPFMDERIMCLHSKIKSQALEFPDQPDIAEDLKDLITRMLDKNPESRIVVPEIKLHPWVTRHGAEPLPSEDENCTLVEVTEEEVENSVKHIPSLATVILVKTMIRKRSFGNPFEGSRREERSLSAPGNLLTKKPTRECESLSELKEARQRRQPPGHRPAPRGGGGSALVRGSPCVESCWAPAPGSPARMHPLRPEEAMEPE
UniProt Q9H422, whole entry: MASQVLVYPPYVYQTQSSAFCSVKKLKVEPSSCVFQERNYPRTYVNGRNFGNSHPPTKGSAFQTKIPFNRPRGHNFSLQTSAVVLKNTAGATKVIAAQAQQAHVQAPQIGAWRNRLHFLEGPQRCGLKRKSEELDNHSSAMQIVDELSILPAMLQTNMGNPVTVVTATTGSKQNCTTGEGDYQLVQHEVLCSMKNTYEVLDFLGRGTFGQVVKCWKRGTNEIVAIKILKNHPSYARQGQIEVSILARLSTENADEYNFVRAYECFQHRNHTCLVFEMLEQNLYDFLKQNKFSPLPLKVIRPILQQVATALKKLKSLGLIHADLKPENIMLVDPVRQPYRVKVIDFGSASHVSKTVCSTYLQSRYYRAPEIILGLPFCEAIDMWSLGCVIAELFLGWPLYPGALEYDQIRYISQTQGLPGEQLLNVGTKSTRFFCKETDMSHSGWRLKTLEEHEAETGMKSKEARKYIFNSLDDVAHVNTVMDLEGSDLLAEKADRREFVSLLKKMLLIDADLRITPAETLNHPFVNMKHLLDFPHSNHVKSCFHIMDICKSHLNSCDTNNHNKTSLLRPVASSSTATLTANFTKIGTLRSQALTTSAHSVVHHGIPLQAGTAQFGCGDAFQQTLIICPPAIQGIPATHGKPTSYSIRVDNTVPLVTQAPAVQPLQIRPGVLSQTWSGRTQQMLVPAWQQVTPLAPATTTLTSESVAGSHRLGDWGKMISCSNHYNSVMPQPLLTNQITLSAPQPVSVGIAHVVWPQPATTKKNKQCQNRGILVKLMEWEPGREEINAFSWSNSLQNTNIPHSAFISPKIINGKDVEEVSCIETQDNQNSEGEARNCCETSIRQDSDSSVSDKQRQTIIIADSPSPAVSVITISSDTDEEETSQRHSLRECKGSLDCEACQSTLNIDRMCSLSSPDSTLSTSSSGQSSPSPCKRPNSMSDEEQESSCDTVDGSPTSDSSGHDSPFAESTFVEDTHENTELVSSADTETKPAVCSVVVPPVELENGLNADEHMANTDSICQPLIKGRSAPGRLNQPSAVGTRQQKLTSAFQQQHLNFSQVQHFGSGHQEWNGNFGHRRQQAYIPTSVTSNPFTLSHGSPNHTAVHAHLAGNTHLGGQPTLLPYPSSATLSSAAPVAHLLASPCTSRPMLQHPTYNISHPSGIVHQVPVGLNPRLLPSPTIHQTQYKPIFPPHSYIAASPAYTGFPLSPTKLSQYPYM
UniProt Q14012, whole entry: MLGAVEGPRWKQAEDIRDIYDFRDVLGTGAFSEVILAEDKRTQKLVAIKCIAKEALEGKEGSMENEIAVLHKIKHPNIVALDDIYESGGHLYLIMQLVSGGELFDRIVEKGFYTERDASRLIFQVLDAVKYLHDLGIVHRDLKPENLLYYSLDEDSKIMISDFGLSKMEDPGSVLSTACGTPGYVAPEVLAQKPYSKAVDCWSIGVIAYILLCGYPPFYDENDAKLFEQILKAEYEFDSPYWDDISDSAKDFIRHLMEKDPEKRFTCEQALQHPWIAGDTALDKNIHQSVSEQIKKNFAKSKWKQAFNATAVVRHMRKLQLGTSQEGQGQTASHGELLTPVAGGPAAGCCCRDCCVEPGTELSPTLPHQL
UniProt Q96GD4, whole entry: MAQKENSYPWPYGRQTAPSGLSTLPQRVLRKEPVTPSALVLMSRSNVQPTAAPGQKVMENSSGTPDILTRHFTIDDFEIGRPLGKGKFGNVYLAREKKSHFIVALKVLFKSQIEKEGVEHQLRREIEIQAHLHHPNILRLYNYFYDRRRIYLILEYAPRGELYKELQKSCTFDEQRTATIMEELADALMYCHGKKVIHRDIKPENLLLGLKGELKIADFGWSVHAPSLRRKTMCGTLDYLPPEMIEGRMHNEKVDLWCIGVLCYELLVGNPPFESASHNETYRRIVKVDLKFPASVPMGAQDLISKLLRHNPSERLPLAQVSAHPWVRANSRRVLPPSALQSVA
UniProt P17948, 27-1338 limits assumed: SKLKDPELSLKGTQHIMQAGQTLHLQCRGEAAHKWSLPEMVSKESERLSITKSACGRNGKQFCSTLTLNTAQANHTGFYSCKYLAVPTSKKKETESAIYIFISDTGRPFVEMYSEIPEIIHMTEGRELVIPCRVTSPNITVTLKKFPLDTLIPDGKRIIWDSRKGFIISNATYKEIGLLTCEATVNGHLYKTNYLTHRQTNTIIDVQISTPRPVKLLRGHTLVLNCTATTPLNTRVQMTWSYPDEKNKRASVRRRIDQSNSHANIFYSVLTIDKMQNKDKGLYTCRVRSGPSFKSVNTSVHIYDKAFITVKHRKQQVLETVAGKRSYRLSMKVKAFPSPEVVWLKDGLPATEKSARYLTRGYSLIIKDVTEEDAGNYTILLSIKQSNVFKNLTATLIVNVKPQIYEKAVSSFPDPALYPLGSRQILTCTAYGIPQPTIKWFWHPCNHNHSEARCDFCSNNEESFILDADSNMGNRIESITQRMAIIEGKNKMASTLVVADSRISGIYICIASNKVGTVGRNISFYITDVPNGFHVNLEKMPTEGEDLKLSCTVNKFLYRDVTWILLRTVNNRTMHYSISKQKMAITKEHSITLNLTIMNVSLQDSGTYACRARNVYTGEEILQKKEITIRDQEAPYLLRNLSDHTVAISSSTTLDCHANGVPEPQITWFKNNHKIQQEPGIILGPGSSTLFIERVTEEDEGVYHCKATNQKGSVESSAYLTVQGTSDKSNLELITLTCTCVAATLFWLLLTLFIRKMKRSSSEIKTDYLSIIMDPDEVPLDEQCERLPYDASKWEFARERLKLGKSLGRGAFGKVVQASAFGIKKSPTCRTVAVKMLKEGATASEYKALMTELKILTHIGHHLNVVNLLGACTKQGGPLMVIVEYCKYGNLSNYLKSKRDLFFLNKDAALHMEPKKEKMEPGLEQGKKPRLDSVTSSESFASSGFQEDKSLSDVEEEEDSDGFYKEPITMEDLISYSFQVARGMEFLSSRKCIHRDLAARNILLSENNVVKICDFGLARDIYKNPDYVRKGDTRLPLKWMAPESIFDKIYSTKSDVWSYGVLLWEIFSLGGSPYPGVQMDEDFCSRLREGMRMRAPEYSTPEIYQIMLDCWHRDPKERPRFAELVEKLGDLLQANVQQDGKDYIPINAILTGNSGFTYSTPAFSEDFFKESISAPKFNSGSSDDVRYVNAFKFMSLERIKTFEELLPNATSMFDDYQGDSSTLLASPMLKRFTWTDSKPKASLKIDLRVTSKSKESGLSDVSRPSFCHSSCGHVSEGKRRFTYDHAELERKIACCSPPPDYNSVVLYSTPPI
UniProt P49841, whole entry: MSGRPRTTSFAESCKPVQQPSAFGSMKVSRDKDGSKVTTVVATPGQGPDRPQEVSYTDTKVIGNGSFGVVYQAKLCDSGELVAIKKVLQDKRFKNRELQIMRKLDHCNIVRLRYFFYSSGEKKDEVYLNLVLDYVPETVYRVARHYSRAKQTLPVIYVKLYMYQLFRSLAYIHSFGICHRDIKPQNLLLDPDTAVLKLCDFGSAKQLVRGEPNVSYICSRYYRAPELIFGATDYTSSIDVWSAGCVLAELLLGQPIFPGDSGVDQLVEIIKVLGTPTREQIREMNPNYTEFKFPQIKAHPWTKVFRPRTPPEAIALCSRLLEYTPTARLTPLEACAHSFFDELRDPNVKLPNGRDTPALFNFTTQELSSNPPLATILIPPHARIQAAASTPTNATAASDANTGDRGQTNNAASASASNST
UniProt O96017, whole entry: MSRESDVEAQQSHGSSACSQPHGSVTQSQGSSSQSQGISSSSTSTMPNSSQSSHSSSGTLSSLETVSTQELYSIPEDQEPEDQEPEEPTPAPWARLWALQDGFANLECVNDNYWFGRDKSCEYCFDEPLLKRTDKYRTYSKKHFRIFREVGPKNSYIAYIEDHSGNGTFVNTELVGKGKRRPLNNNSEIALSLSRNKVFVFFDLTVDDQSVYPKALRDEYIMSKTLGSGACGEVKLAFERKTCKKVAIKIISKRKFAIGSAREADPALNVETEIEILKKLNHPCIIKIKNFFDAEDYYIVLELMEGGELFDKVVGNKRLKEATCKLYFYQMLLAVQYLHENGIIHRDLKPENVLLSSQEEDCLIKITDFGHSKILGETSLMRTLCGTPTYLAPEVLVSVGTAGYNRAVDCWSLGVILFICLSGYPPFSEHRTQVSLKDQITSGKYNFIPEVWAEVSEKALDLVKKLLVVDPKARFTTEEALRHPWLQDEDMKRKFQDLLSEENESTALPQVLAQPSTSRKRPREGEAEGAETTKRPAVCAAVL

S6K1 = S6K1 (Homo sapiens, UniProt P23443); details: 1 µM, assay duplicates
Protocol: as §1, §2, §3

p38b MAPK = p38b MAPK (Homo sapiens, UniProt Q15759); details: 1 µM, assay duplicates
Protocol: as §1, §2, §3

PKCz = PKCz (Homo sapiens, UniProt Q05513); details: 1 µM, assay duplicates
Protocol: as §1, §2, §3

PIM3 = PIM3 (Homo sapiens, UniProt Q86V86); details: 1 µM, assay duplicates
Protocol: as §1, §2, §3

NEK6 = NEK6 (Homo sapiens, UniProt Q9HC98); details: 1 µM, assay duplicates
Protocol: as §1, §2, §3

PKCa = PKCa (Homo sapiens, UniProt P17252); details: 1 µM, assay duplicates
Protocol: as §1, §2, §3

JAK2 = JAK2 (Homo sapiens, UniProt O60674); details: for JAK2 inhibition: 1 μM; for JAK2 % activity remaining: 1 µM, assay duplicates
Protocol: as §1, §2, §3

Lck = Lck (Homo sapiens, UniProt P06239); details: 1 µM, assay duplicates
Protocol: as §1, §2, §3

MST4 = MST4 (Homo sapiens, UniProt Q9P289); details: 1 µM, assay duplicates
Protocol: as §1, §2, §3

LKB1 = LKB1 (Homo sapiens, UniProt Q15831); details: 1 µM, assay duplicates
Protocol: as §1, §2, §3

PAK2 = PAK2 (Homo sapiens, UniProt Q13177); details: 1 µM, assay duplicates
Protocol: as §1, §2, §3

EPH-A2 = EPH-A2 (Homo sapiens, UniProt P29317); details: 1 µM, assay duplicates
Protocol: as §1, §2, §3

PRK2 = PRK2 (Homo sapiens, UniProt Q16513); details: 1 µM, assay duplicates
Protocol: as §1, §2, §3

MNK1 = MNK1 (Homo sapiens, UniProt Q9BUB5); details: 1 µM, assay duplicates
Protocol: as §1, §2, §3

PAK4 = PAK4 (Homo sapiens, UniProt O96013); details: 1 µM, assay duplicates
Protocol: as §1, §2, §3

PKBa = PKBa (Homo sapiens, UniProt P31749); details: 1 µM, assay duplicates
Protocol: as §1, §2, §3

YES1 = YES1 (Homo sapiens, UniProt P07947); details: 1 µM, assay duplicates
Protocol: as §1, §2, §3

CAMKKb = CAMKKb (Homo sapiens, UniProt Q96RR4); details: 1 µM, assay duplicates
Protocol: as §1, §2, §3

HER4 = HER4 (Homo sapiens, UniProt Q15303); details: 1 µM, assay duplicates
Protocol: as §1, §2, §3

HIPK3 = HIPK3 (Homo sapiens, UniProt Q9H422); details: 1 µM, assay duplicates
Protocol: as §1, §2, §3

MARK2 = MARK2 (Homo sapiens, UniProt Q7KZI7); details: 1 µM, assay duplicates
Protocol: as §1, §2, §3

CAMK1 = CAMK1 (Homo sapiens, UniProt Q14012); details: 1 µM, assay duplicates
Protocol: as §1, §2, §3

Aurora B = Aurora B (Homo sapiens, UniProt Q96GD4); details: 1 µM, assay duplicates
Protocol: as §1, §2, §3

IKKe = IKKe (Homo sapiens, UniProt Q14164); details: 1 µM, assay duplicates
Protocol: as §1, §2, §3

VEG-FR = VEG-FR (Homo sapiens, UniProt P17948); details: for VEGFR inhibition: 1 μM; for VEG-FR % activity remaining: 1 µM, assay duplicates
Protocol: as §1, §2, §3

MINK1 = MINK1 (Homo sapiens, UniProt Q8N4C8); details: 1 µM, assay duplicates
Protocol: as §1, §2, §3

Src = Src (Homo sapiens, UniProt P12931); details: 1 µM, assay duplicates
Protocol: as §1, §2, §3

PIM1 = PIM1 (Homo sapiens, UniProt P11309); details: 1 µM, assay duplicates
Protocol: as §1, §2, §3

PDK1 = PDK1 (Homo sapiens, UniProt O15530); details: 1 µM, assay duplicates
Protocol: as §1, §2, §3

ERK1 = ERK1 (Homo sapiens, UniProt P27361); details: 1 µM, assay duplicates
Protocol: as §1, §2, §3

SGK1 = SGK1 (Homo sapiens, UniProt O00141); details: 1 µM, assay duplicates
Protocol: as §1, §2, §3

MST2 = MST2 (Homo sapiens, UniProt Q13188); details: 1 µM, assay duplicates
Protocol: as §1, §2, §3

CHK1 = CHK1 (Homo sapiens, UniProt O14757); details: 1 µM, assay duplicates
Protocol: as §1, §2, §3

HIPK1 = HIPK1 (Homo sapiens, UniProt Q86Z02); details: 1 µM, assay duplicates
Protocol: as §1, §2, §3

GSK3b = GSK3b (Homo sapiens, UniProt P49841); details: for GSK3β inhibition: 1 μM; for GSK3b % activity remaining: 1 µM, assay duplicates
Protocol: as §1, §2, §3

MARK1 = MARK1 (Homo sapiens, UniProt Q9P0L2); details: 1 µM, assay duplicates
Protocol: as §1, §2, §3

CHK2 = CHK2 (Homo sapiens, UniProt O96017); details: 1 µM, assay duplicates
Protocol: as §1, §2, §3

Aurora A = Aurora A (Homo sapiens, UniProt O14965); details: 1 µM, assay duplicates
Protocol: as §1, §2, §3

NUAK1 = NUAK1 (Homo sapiens, UniProt O60285); details: 1 µM, assay duplicates
Protocol: as §1, §2, §3

MSK1 = MSK1 (Homo sapiens, UniProt O75582); details: 1 µM, assay duplicates
Protocol: as §1, §2, §3

CSK = CSK (Homo sapiens, UniProt P41240); details: 1 µM, assay duplicates
Protocol: as §1, §2, §3

## Cc1nn(C)cc1-c1nc2c(-c3cnn(Cc4ccc(Cl)cc4)c3)c(Cl)cnc2[nH]1
FGF-R1
  FGF-R1 % activity remaining: 13%
S6K1
  S6K1 % activity remaining: 37%
p38b MAPK
  p38b MAPK % activity remaining: 100%
PKCz
  PKCz % activity remaining: 86%
PIM3
  PIM3 % activity remaining: 80%
NEK6
  NEK6 % activity remaining: 77%
PKCa
  PKCa % activity remaining: 57%
JAK2
  JAK2 inhibition: greater than 80%
  JAK2 % activity remaining: 4%
Lck
  Lck % activity remaining: 88%
MST4
  MST4 % activity remaining: 58%
LKB1
  LKB1 % activity remaining: 64%
PAK2
  PAK2 % activity remaining: 103%
EPH-A2
  EPH-A2 % activity remaining: 91%
PRK2
  PRK2 % activity remaining: 57%
MNK1
  MNK1 % activity remaining: 27%
PAK4
  PAK4 % activity remaining: 38%
PKBa
  PKBa % activity remaining: 74%
YES1
  YES1 % activity remaining: 39%
CAMKKb
  CAMKKb % activity remaining: 32%
HER4
  HER4 % activity remaining: 104%
HIPK3
  HIPK3 % activity remaining: 9%
MARK2
  MARK2 % activity remaining: 42%
CAMK1
  CAMK1 % activity remaining: 101%
Aurora B
  Aurora B % activity remaining: 114%
IKKe
  IKKe % activity remaining: 32%
VEG-FR
  VEGFR inhibition: greater than 80%
  VEG-FR % activity remaining: 7%
MINK1
  MINK1 % activity remaining: 44%
Src
  Src % activity remaining: 32%
PIM1
  PIM1 % activity remaining: 91%
PDK1
  PDK1 % activity remaining: 87%
ERK1
  ERK1 % activity remaining: 30%
SGK1
  SGK1 % activity remaining: 83%
MST2
  MST2 % activity remaining: 77%
CHK1
  CHK1 % activity remaining: 74%
HIPK1
  HIPK1 % activity remaining: 5%
GSK3b
  GSK3β inhibition: greater than 80%
  GSK3b % activity remaining: 3%
MARK1
  MARK1 % activity remaining: 51%
CHK2
  CHK2 % activity remaining: 38%
Aurora A
  Aurora A % activity remaining: 1%
NUAK1
  NUAK1 % activity remaining: 4%
MSK1
  MSK1 % activity remaining: 59%
CSK
  CSK % activity remaining: 80%

## CNCc1cccc(Cn2cc(-c3c(Cl)cnc4[nH]c(-c5cn(C)nc5C)nc34)cn2)c1
FGF-R1
  FGF-R1 % activity remaining: 7%
S6K1
  S6K1 % activity remaining: 13%
p38b MAPK
  p38b MAPK % activity remaining: 74%
PKCz
  PKCz % activity remaining: 82%
PIM3
  PIM3 % activity remaining: 34%
NEK6
  NEK6 % activity remaining: 80%
PKCa
  PKCa % activity remaining: 45%
JAK2
  JAK2 inhibition: ≥ 80%
  JAK2 % activity remaining: 4%
Lck
  Lck % activity remaining: 17%
MST4
  MST4 % activity remaining: 50%
LKB1
  LKB1 % activity remaining: 66%
PAK2
  PAK2 % activity remaining: 80%
EPH-A2
  EPH-A2 % activity remaining: 47%
PRK2
  PRK2 % activity remaining: 30%
MNK1
  MNK1 % activity remaining: 62%
PAK4
  PAK4 % activity remaining: 51%
PKBa
  PKBa % activity remaining: 84%
YES1
  YES1 % activity remaining: 8%
CAMKKb
  CAMKKb % activity remaining: 51%
HER4
  HER4 % activity remaining: 43%
HIPK3
  HIPK3 % activity remaining: 57%
MARK2
  MARK2 % activity remaining: 48%
CAMK1
  CAMK1 % activity remaining: 43%
Aurora B
  Aurora B % activity remaining: 8%
IKKe
  IKKe % activity remaining: 10%
VEG-FR
  VEGFR inhibition: ≥ 80%
  VEG-FR % activity remaining: 5%
MINK1
  MINK1 % activity remaining: 56%
Src
  Src % activity remaining: 4%
PIM1
  PIM1 % activity remaining: 53%
PDK1
  PDK1 % activity remaining: 27%
ERK1
  ERK1 % activity remaining: 38%
SGK1
  SGK1 % activity remaining: 25%
MST2
  MST2 % activity remaining: 80%
CHK1
  CHK1 % activity remaining: 59%
HIPK1
  HIPK1 % activity remaining: 21%
GSK3b
  GSK3β inhibition: ≥ 80%
  GSK3b % activity remaining: 2%
MARK1
  MARK1 % activity remaining: 56%
CHK2
  CHK2 % activity remaining: 25%
Aurora A
  Aurora A % activity remaining: 1%
NUAK1
  NUAK1 % activity remaining: 8%
MSK1
  MSK1 % activity remaining: 50%
CSK
  CSK % activity remaining: 62%
